The target of one test is T1, TSHR(L) (Homo sapiens, UniProt P16473).
T1 construct: purchased Eurofins DiscoverX (PathHunter gpcrMAX)
Kind of test: PathHunter β-arrestin assay. In kind it is cell-based. As to conditions: screen, control agonist; U2OS, RT, 4HR.

Amino acid sequences for entries named in this document (tags omitted). Residues count along the entry.
UniProt P22888, 27-699: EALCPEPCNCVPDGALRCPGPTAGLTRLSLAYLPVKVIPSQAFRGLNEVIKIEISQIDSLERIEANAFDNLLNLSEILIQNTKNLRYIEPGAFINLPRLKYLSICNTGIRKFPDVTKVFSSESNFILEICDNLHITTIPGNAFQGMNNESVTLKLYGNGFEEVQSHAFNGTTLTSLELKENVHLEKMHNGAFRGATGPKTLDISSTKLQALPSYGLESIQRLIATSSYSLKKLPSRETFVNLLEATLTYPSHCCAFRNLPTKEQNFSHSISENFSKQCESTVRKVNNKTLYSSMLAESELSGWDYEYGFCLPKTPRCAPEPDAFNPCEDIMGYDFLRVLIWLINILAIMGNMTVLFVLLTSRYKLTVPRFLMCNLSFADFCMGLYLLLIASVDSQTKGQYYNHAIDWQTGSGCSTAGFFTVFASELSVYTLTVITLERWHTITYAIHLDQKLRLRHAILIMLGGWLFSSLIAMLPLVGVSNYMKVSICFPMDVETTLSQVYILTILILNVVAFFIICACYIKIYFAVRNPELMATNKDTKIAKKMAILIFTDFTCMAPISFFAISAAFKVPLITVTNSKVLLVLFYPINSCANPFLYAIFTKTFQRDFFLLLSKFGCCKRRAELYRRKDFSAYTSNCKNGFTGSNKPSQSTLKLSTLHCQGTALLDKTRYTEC

In the next test the target is T2, LHCGR (Homo sapiens, UniProt P22888).
T2 construct: purchased Eurofins DiscoverX (PathHunter gpcrMAX)
Kind of test: PathHunter β-arrestin assay. In kind it is cell-based. As to conditions: screen, control agonist; CHO, 37C, 2HR.

With TSH: control agonist for TSHR(L), the EC80 (in general, the point of the concentration-response curve where the effect stands at 80%) with TSHR(L) was determined as 29.3 nM.

hCG: control agonist for LHCGR yielded an 80% effect concentration (EC80) in the test with LHCGR of 4.38 nM.

(Values after publication PMC9798004 (Frontiers in Psychiatry, 2022).)
